Test results: patent US8536172B2, “Inhibitors of JNK” (Roche Palo Alto LLC, priority 2009, dated 2013)

Chains of the proteins cited; added tags and fusions are not shown. Lines headed by an entry give the natural chain unless they say otherwise; changes in a name come on top. A line that says so, or that is headed by a name, gives the form on record, which may keep a tag or linker.
UniProt P45983, other isoform, or with tags, fused parts or gaps: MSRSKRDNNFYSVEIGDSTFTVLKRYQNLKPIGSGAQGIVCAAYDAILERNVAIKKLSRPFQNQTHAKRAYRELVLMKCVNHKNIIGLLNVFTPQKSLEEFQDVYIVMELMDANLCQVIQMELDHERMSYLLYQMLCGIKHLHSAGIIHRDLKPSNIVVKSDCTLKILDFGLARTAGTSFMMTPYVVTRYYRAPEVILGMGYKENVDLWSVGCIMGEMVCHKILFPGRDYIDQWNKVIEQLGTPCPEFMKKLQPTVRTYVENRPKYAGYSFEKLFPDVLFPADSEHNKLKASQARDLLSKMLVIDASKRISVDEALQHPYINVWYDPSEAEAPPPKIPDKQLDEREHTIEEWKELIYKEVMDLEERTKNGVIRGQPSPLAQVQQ
UniProt P45984: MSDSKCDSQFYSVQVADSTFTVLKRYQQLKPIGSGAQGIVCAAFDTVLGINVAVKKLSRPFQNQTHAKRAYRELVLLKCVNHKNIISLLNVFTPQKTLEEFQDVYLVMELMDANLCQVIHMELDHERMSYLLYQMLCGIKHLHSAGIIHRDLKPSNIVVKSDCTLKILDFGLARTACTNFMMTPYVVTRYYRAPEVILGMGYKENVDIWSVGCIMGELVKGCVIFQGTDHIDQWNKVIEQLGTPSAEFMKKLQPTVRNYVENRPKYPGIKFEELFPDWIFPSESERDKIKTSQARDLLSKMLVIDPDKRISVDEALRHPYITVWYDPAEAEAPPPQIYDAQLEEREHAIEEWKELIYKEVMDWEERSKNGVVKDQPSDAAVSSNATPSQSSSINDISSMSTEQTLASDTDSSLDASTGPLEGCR

Tests used:
[1] = biological target: Human JNK1α1 (Homo sapiens (Human), UniProt P45983); assay: JNK assay in vitro: phosphorylation of GST-ATF2 (19-96) with [γ-33P] ATP, JNK1; format: biochemical; settings: 2 nM enzyme, 1 μM ATF2, 6 μM ATP (Km), 30° C. 30 min
Experimental: JNK activity was measured by phosphorylation of GST-ATF2 (19-96) with [γ-^33P] ATP. […] Human JNK2α2 assay contains 1 nM enzyme, 1 μM ATF2, 8 μM ATP with 1 uCi [γ-^33P] ATP. Human JNK1α1 assay contains 2 nM enzyme, 1 μM ATF2, 6 μM ATP with 1 μCi [γ-^33P] ATP. […] ATP. The enzyme assay was carried out in the presence or absence of several compound concentrations. JNK and compound were pre-incubated for 10 min., followed by initiation of the enzymatic reaction by adding ATP and the substrate. The reaction mixture was incubated at 30° C. for 30 min. […] The incorporation of ^33P into ATF2 was quantified on a microplate scintillation counter (Packard Topcount). Compound inhibition potency on JNK was measured by IC50 value generated from ten concentration inhibition curves fitted into the 3-parameter model: % inhibition=Maximum/(1+(IC50/[Inhibitor])^slope). Data were analyzed on Microsoft Excel for parameter estimation.

[2] = biological target: Human JNK2α2 (Homo sapiens (Human), UniProt P45984); assay: JNK assay in vitro: phosphorylation of GST-ATF2 (19-96) with [γ-33P] ATP, JNK2; format: biochemical; settings: 1 nM enzyme, 1 μM ATF2, 8 μM ATP (Km), 30° C. 30 min
Experimental: JNK activity was measured by phosphorylation of GST-ATF2 (19-96) with [γ-^33P] ATP. […] Human JNK2α2 assay contains 1 nM enzyme, 1 μM ATF2, 8 μM ATP with 1 uCi [γ-^33P] ATP. Human JNK1α1 assay contains 2 nM enzyme, 1 μM ATF2, 6 μM ATP with 1 μCi [γ-^33P] ATP. Human JNK3 (Upstate Biotech #14-501M) assay contains 2 nM enzyme, 1 μM ATF2, 4 μM ATP with 1 μCi [γ-^33P] ATP. The enzyme assay was carried out in the presence or absence of several compound concentrations. JNK and compound were pre-incubated for 10 min., followed by initiation of the enzymatic reaction by adding ATP and the substrate. The reaction mixture was incubated at 30° C. for 30 min. At the end of incubation, the reaction was terminated by transferring 25 μl of the reaction mixture to 150 μl of 10% glutathione Sepharose® slurry (Amersham #27-4574-01) containing 135 mM EDTA. The reaction product was captured on the affinity resin, and washed on a filtration plate (Millipore, MABVNOB50) with phosphate buffered saline for six times to remove free radionucleotide. The incorporation of ^33P into ATF2 was quantified on a microplate scintillation counter (Packard Topcount). Compound inhibition potency on JNK was measured by IC50 value generated from ten concentration inhibition curves fitted into the 3-parameter model: % inhibition=Maximum/(1+(IC50/[Inhibitor])^slope). Data were analyzed on Microsoft Excel for parameter estimation.

| SMILES | IC50 [1] | IC50 [2] |
| --- | --- | --- |
| CS(=O)(=O)C1CCN(c2cccc3c2ccn3-c2ccnc(N[C@H]3CC[C@@](C)(O)CC3)n2)CC1 [Compound I-17, 4-{4-[4-(4-Methanesulfonyl-piperidin-1-yl)-indol-1-yl]-pyrimidin-2-ylamino}-1-methyl-cyclohexanol] | 8.5 nM | 47.7 nM |
| CS(=O)(=O)C1CCN(c2cccc3c2ccn3-c2ccnc(N[C@H]3CC[C@@H](O)CC3)n2)CC1 [Compound I-62, 4-{4-[4-(4-Methanesulfonyl-piperidin-1-yl)-indol-1-yl]-pyrimidin-2-ylamino}-cyclohexanol] |  | 145 nM |
| CS(=O)(=O)C1CCN(c2cccc3c2ccn3-c2ccnc(N[C@H]3CC[C@H](O)CC3)n2)CC1 [Compound I-12, 4-{4-[4-(4-Methanesulfonyl-piperidin-1-yl)-indol-1-yl]-pyrimidin-2-ylamino}-cyclohexanol] | 3.1 nM | 17.9 nM |
| CS(=O)(=O)C1CCN(c2cccc3c2ccn3-c2ccnc(N[C@H]3CC[C@](C)(O)CC3)n2)CC1 [Compound I-16, 4-{4-[4-(4-Methanesulfonyl-piperidin-1-yl)-indol-1-yl]-pyrimidin-2-ylamino}-1-methyl-cyclohexanol] |  | 66 nM |
| CCNC(=O)[C@H]1CC[C@H](Nc2nccc(-n3ccc4c(N5CCC(S(C)(=O)=O)CC5)cccc43)n2)CC1 [Compound I-19, 4-{4-[4-(4-Methanesulfonyl-piperidin-1-yl)-indol-1-yl]-pyrimidin-2-ylamino}-cyclohexanecarboxylic acid ethylamide] | 6.1 nM | 32.8 nM |
